In publication PMC7870876:
Some of the results follow.

Protein sequences, listed by entry. Tags and fused reporters are not part of them.
UniProt P32851, whole entry: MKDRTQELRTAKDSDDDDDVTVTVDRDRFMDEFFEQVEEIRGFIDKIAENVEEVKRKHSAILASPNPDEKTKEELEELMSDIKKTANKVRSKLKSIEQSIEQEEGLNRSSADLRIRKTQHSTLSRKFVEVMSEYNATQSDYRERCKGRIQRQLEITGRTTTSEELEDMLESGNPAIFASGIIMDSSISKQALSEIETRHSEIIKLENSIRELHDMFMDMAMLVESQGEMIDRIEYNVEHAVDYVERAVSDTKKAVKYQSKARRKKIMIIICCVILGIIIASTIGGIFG

Target: Syntaxin-1A (UniProt P32851)
Experiment: cross-link between two proteins; cross-linking mass spectrometry

Substance: Synaptotagmin-1, P21707
- listed as a hit: yes
